Assay results taken from patent US20250326814A1, “MODIFIED OXYNTOMODULIN AND METHODS OF USE THEREOF” (OPKO BIOLOGICS LTD., priority 2024, published 2025).

Columns and labels:
[1] = molecular target: glucagon receptor (GCGR); assay: cell-based or functional assay
[2] = molecular target: glucagon-like peptide-1 receptor (GLP-1R); assay: cell-based or functional assay

EC50 (nM) GCGR, glucagon activity in vitro [1]: 16.8 nM
% EC50 compare to KPI (GLP1) [2]: 10.8%
Substance: OPK-88003 API (SEQ ID NO: 3 where Xaa38=Cys-PEG20 and Xaa39=Cys-PEG20) (peptide)
